Columns and labels:
[1] = target: exTrkB (Homo sapiens, UniProt Q16620); assay: MST binding affinity (Kd) determination; details: non-binding compounds given as 0
Protocol: The gene encoding the extracellular domain of the human TrkB receptor (exTrkB), residues 1−430, was cloned into the pCMV2 expression vector. Protein expression was performed in suspension-cultivated mammalian ExpiCHO-S cells using the ExpiFectamine (Thermo Scientific, Thermo Fisher Scientific, Waltham, MA, USA) transfection reagent. The secreted protein was purified using a four-step protocol. Clarified culture medium was precipitated with ammonium sulfate added to a final concentration of 1.5 M and centrifuged (235,000× g, 60 min at 4 °C). The supernatant after centrifugation was applied on a HiTrap Phenyl column (GE Healthcare, Chicago, IL, USA) equilibrated with buffer A (25 mM Tris, 1 mM DTT; pH 7.5) with 1.5 M ammonium sulfate. Bound proteins were eluted with a linear gradient of buffer A. The eluted proteins were dialyzed overnight in buffer A and loaded on a CaptoQ ImpRes column (GE Healthcare) equilibrated with buffer A with 50 mM NaCl. The bound proteins were eluted with a linear gradient of buffer A with 1 M NaCl. The fractions containing exTrkB protein were pooled, and MnCl2 and CaCl2 (1mM final concentration each) were added. […] The protein concentration was determined from the absorption at 280 nm using an UV NanoDrop 1000 spectrophotometer (Thermo Scientific).
The exTrkB was labeled with a Monolith Protein Labeling Kit RED-NHS 2nd Generation (NanoTemper Technologies GmbH, Munich, Germany) according to the manufacturer’s protocol. The labelling efficiency was always determined spectrophotometrically with NanoPhotometer® NP80 (Impel) in line with the manufacturer’s recommendations. […]
For primary screening (single-point MST experiments for signal amplitude determination), each of the 987 screened compounds were diluted in MST buffer + 0.1% Tween20 to a final concentration of 0.5 mM. […] The experiments were performed using nano-blue excitation, LED light adjusted to 20% excitation power, and MST power set to medium, and the fluorescence signal during thermophoresis was detected after 30 s. […]

Chains of the proteins cited; added tags and fusions are not shown. Residues count along the entry.
UniProt Q16620, 32-430 limits assumed: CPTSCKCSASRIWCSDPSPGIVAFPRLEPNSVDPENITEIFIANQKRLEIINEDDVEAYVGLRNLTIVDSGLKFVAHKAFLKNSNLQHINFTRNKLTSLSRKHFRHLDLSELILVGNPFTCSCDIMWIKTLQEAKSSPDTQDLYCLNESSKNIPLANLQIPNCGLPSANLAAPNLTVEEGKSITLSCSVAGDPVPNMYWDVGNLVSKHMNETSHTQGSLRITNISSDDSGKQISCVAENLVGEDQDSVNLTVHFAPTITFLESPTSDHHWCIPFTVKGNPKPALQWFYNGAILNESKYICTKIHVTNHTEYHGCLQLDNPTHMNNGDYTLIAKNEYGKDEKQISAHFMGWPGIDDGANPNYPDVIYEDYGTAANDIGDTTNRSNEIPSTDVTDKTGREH
UniProt Q63604, 32-821 limits assumed: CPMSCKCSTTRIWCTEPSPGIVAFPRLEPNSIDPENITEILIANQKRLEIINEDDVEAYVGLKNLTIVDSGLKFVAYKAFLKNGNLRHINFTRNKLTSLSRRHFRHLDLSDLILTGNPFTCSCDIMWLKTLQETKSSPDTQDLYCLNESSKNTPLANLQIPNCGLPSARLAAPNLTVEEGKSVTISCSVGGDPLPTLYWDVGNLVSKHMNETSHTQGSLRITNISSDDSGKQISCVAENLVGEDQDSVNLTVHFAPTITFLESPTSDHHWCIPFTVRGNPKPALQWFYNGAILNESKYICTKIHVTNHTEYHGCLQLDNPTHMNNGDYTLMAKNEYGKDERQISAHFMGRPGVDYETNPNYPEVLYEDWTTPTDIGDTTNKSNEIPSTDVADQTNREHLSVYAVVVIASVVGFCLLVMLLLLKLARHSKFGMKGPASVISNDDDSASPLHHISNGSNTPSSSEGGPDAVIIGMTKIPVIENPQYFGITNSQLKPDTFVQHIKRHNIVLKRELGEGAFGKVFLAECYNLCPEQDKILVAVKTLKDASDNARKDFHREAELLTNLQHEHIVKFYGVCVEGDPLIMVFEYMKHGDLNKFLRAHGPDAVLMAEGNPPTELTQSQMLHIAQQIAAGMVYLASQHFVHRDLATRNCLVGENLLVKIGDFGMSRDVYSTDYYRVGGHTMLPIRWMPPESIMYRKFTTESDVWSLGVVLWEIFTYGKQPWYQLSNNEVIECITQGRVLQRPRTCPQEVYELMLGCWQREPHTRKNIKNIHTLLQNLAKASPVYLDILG

[2] = Chemical stability pH 7.4; details: pH = 7.4, 4 h
[3] = PAMPA; details: 10 μM, 4 h
Protocol: An artificial membrane was prepared in 96-well filter plates (Millipore MultiScreen IP Filter Plate). Each well of the donor plate was coated with 5 μL of the 2% lecithin/dodecane solution. Next, in each well of the donor plate, 150 μL of a compound-containing donor solution (compound dissolved in 5% DMSO, PBS) was added. All the compounds were added at a concentration of 10 μM. The compounds were prepared from 10 mM stock solutions in DMSO. The 300 μL of buffer (5% DMSO in PBS, pH 7.4) was transferred to each well of the PTFE acceptor plate in technical triplicates. The compound-filled donor plate was placed into the acceptor plate. Incubation was carried out for 4 h at room temperature.
Samples were taken after incubation from donor and acceptor compartments, diluted with 2 volumes of acetonitrile containing a 200 nM concentration of the internal standard (imipramine). The solutions from the donor plate were diluted if necessary. Testosterone (10 μM) and atenolol (10 μM) were used as high and low reference permeability compounds, respectively.
The compound concentration was determined by LC-MS/MS (an Agilent 6460 MS/MS mass spectrometer equipped with Agilent Infinity II 1290 UHPLC, Agilent Technologies). A calibration curve was prepared to quantify the contents of the compound in the test solution.

[4] = tested on: Caco-2 monolayer; assay: Caco-2 passive permeability; details: 2 h
Protocol: Passive permeability was investigated in 24-well-plate format using differentiated Caco-2 cells (CacoReady 24 well, ReadyCell, Barcelona, Spain), according to a previously published protocol with proprietary modifications and with restrictions described in the product manual. Bidirectional (apical-to-basal and basal-to-apical, AB, and BA) passive permeability was assessed in HBSS buffer containing calcium, magnesium, 5 mM glucose, and a modified transporter inhibitor cocktail (final concentrations of 5 μM elacridar and 20 μM cyclosporine A). Samples were collected at time 0 (from the donor compartment) and after 2 h (from the donor and the acceptor compartments) and diluted with the assay buffer (donor samples) and MeOH (all samples) containing internal standard (100 nM imipramine), followed by a brief centrifugation to remove any buffer precipitates prior to LC-MS analysis. Compounds’ contents in the samples were measured using a UHPLC system (Vanquish Flex, Thermo Fisher Scientific) coupled to a Triple Quad MS detector (QTRAP 5500+, Sciex, Framingham, MA, USA) in multiple reaction monitoring (MRM) mode. Conditions of gradient LC separation were adjusted individually to each compound. Passive permeability (Papp) was then calculated according to the product manual. Atenolol and diclofenac were used as low and high permeability reference compounds, respectively. […]

[5] = Metabolic stability in human liver microsomes
Protocol: (§1) First-phase metabolic stability was investigated in vitro using human (HLM) and mouse (MLM) liver microsomes (Gibco, Thermo Fisher Scientific) as described in Gunerka et al., 2020, with some modifications. Verapamil and warfarin were used as high and low clearance reference compounds, respectively. Test compounds (1 μM) were incubated in the dark at 37 °C with mixing (500 rpm) in 100 mM potassium phosphate buffer containing microsomes (0.5 mg/mL), NADPH (1–1.2 mM), and MgCl2 (3.3 mM). NADPH, a cofactor for CYP family enzymes, was prepared prior to the experiment by reducing NADP with G6P dehydrogenase (Merck, Darmstadt, Germany) (13.2 mM G6P, 5.2 mM NADP, 3.2 U/mL G6P dehydrogenase, 25 min at 30 °C, 500 rpm). The negative control contained buffer instead of NADPH solution. Samples were collected at 0, 10, 20, and 40 min or 0 and 40 min for the negative controls. The reaction was stopped by protein precipitation in 4 volumes of ice cold MeOH containing 100 nM imipramine as an internal standard. […] The compounds’ disappearance from the reactions was measured using the LC-MS system as described for Caco-2 permeability. The elimination rate constant (k) was calculated as a module slope of a log-linear regression of substrate concentration vs. time. Then, the intrinsic clearance (Clint) was calculated as k per microsomal protein content (d = 0.5 mgprotein/mL).

[6] = Metabolic stability in mouse liver microsomes
Protocol: as §1

[7] = target: TrkB receptor (Rattus norvegicus, UniProt Q63604); assay: ELFI TrkB phosphorylation, orthosteric agonist mode, SN56 T48 cell line; details: 0.125–100 μM, 15 min

Cc1ccc(C(=O)C2=C(O)C(=O)N(c3cc(C)on3)C2c2ccncc2)cc1 (stereo not shown)
Kd [1]: 2320 nM | Chemical Stability [% of Degradation] [2]: Stable | PAMPA [3]: 0.03 10^−6·cm/s | Papp,AB ([4]; Caco-2, apical to basal): 0.61 10^−6·cm/s | Papp,BA ([4]; Caco-2, basal to apical): 10.86 10^−6·cm/s | Clint HLM ([5]; 1 μM, phase I): 10 μL·min^−1·mgprotein^−1 | Metabolic stability in HLM (classification) ([5]; compared with verapamil): very good metabolic stability | Clint MLM ([6]; 1 μM, phase I): 3.3 μL·min^−1·mgprotein^−1 | Metabolic stability in MLM (classification) ([6]; compared with verapamil): very good metabolic stability | Orthosteric activity (induction of TrkB phosphorylation) [7]: did not observe any orthosteric activity

Reference: publication PMC8398766, “Do Small Molecules Activate the TrkB Receptor in the Same Manner as BDNF? Limitations of Published TrkB Low Molecular Agonists and Screening for Novel TrkB Orthosteric Agonists” (Pharmaceuticals, 2021)
